Antibody variant affinities, Ab-95 light chain, assay 2

The measurements come from Engelhart et al. 2022 (doi:10.1038/s41597-022-01779-4) through the FLAb antibody collection.

All variants were tested on one target, the spike HR2 peptide PDVDLGDISGINAS (SARS-CoV-2).

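In library AAYL52, one, two or three CDR residues were substituted; doubles and triples were drawn at random. In AlphaSeq, yeast of one mating type display the scFv and yeast of the other type display the target. After mating in shaken culture at 30 °C for 16 h, diploids were selected and their barcode pairs sequenced. Scores were corrected for input abundance and mapped to Kd with protein pairs of known affinity run in the same pool. There are three technical replicates.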

Parent: Ab-95, a human scFv built as VH, the linker GGGGSGGGGSGGGGS, VL. Only the CDRs of the light chain vary.
VH: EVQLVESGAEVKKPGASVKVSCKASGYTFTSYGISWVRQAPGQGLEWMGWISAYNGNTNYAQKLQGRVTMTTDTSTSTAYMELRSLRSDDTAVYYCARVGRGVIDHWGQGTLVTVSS
VL: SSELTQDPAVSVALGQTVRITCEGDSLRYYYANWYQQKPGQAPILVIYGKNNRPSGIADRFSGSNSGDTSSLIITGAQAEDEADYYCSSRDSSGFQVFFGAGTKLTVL

Each variant is given by its three light chain CDRs, as the data file delimits them; those of the parent are EGDSLRYYYAN, GKNNRPS, SSRDSSGFQVF.
Values are log10 of the apparent Kd in nM; lower means stronger binding.
Averages over replicates are reported, and they cover detected replicates only.
A pair that was not seen in that replicate is written "nd"; this usually means weak binding, but a binder can also be missed.
Nonspecific signal, from three strains lacking the peptide, appeared in 28% of pairings of library AAYL52, centred on 3.91 (5% of these signals below 2.90); values are not corrected for it. Also given: how often the same scFv was detected with the empty control strains.

Variant WEDSLRAYYAN / GKNNRPS / SSRDSSGFQVF gave nd, nd, 4.11 (controls 4 of 9).
Variant LGDSQRYYYAN / GKNNRPS / SSRDSSGQQVF gave 2.99, 2.63, 2.46 (mean 2.69; controls 4 of 9).
Variant EGDSLRYYYAN / GKCNRPS / SNRDSSGFQVH gave nd, 3.76, nd (controls 1 of 9).
Variant SGDSVRYYYAN / DKNNRPS / SSRDSSGFQVF gave nd, nd, nd (controls 3 of 9).
Variant EGFSLRYYYAN / GRNNRPS / SSRDSSGFMVF gave 3.71, 3.98, 3.27 (mean 3.65; controls 5 of 9).
Variant EGDSLRRYYAN / GKNNRPS / SSRDSSQFQVH gave 4.07, 4.87, 2.93 (mean 3.96; controls 1 of 9).
Variant EGASLRYYYAN / GKNARPS / SSRPSSGFQVF gave 2.65, 2.35, 2.13 (mean 2.37; controls 5 of 9).
Variant EGDSARYYYAN / GKNKRPD / SSRDSSGFQVF gave 3.34, 3.32, 3.88 (mean 3.51; controls 4 of 9).
Variant EGDSLRNYSAN / GKNNRPS / SSRDSSGFQVA gave 2.32, 2.02, 2.38 (mean 2.24; controls 2 of 9).
Variant EGDSRRYYYAN / GKNNRPS / SSRDVSRFQVF gave nd, nd, nd (controls 3 of 9).
Variant EGDSLRYYYAN / GKNNRPS / SSRDSVTFQAF gave 2.50, 2.92, 3.11 (mean 2.84; controls 3 of 9).
Variant EGDSYRYYYAN / GKNNRPS / SSRDTSGFQVF gave nd, 3.05, 3.48 (mean 3.26; controls 1 of 9).
Variant EGDSLRYLYAN / GDNNRPS / SHRDSSGFQVF gave 2.47, 2.80, 2.68 (mean 2.65; controls 2 of 9).
Variant EGDSLREYYAN / GKNNRPS / SSRDSSGFQVF gave 2.12, 2.02, 1.97 (mean 2.03; controls 3 of 9).
Variant EGDSLRYSYAN / GKNNRPW / SSRDSSGDQVF gave 1.80, 1.72, 1.06 (mean 1.53; controls 4 of 9).
Variant EGDSLRYYWAN / PKNNRPS / SSRKSSGFQVF gave nd, 4.02, nd (controls 1 of 9).
Variant EGDSLRYYYAN / GKNNRPS / SSRDSSGFQKF gave nd, nd, nd (controls 2 of 9).
Variant EGDSLRRYYSN / GKNNRVS / SSRDSSGFQVF gave 1.61, 1.52, 0.96 (mean 1.36; controls 1 of 9).
Variant EGDSLRYWYAN / GKNNRPS / SSRDSSGFAVF gave 2.32, 2.15, 3.00 (mean 2.49; controls 1 of 9).
Variant EHDSLRYYYAN / GKNARPA / SSRDSSGFQVF gave 2.87, 2.61, 2.98 (mean 2.82; controls 3 of 9).
Variant ELDSLRYYYAN / GKNNKPN / SSRDSSGFQVF gave nd, nd, 3.79 (controls 1 of 9).
Variant EGVSLRYYYIN / GKNNRPS / DSRDSSGFQVF gave nd, nd, nd (controls 2 of 9).
Variant EGDSLRYWYNN / GGNNRPS / SSRDSSGFQVF gave 1.98, 2.01, 1.62 (mean 1.87; controls 2 of 9).
Variant EGDSLRYYYFN / AKNNRPS / SSRDSSFFQVF gave 5.13, nd, nd (controls 7 of 9).
Variant EGDSLHYYYAI / GKNNRPS / SSRDSSGFQVR gave nd, 4.46, nd (controls 1 of 9).
Variant EKDSLRYYYGN / GKNNRPS / SSRDMSGFQVF gave 3.74, 2.68, nd (mean 3.21; controls 3 of 9).
Variant EGDSLRYYYLF / GKNNRPS / SSRDSSGFQVS gave nd, 4.27, nd (controls 2 of 9).
Variant EGNSLRMYYAN / HKNNRPS / SSRDSSGFQVF gave nd, nd, nd (controls 0 of 9).
Variant EGDSLRYYYAN / GKNRCPS / SSRDSNGFQVF gave 4.14, nd, 3.19 (mean 3.67; controls 2 of 9).
Variant EGDSTRYFPAN / GKNNRPS / SSRDSSGFQVF gave 2.34, 2.95, 3.09 (mean 2.79; controls 6 of 9).
Variant EGDSLRYYYAN / FKNNRIS / SARDSSGFQVF gave 4.51, 4.18, nd (mean 4.35; controls 5 of 9).
Variant EMDSLRYYYAN / GKNNRES / SSRDSSGFSVF gave 3.46, 5.38, 4.50 (mean 4.45; controls 4 of 9).
Variant EGDSPRYQYAN / GKENRPS / SSRDSSGFQVF gave 3.95, nd, nd (controls 3 of 9).
Variant EGDSLRYYYAN / GWNNRPD / SSRSSSGFQVF gave 4.16, 3.84, nd (mean 4.00; controls 1 of 9).
Variant ETDSLRYYYAN / GKNCRPS / SSRDSSGFQNF gave 4.23, 4.95, 4.42 (mean 4.53; controls 1 of 9).
Variant EGDSGRYYYAD / GKNYRPS / SSRDSSGFQVF gave 4.27, nd, 4.46 (mean 4.37; controls 2 of 9).
Variant EGDSLRYYYAN / GKNNMPS / SSRDSSGFHVF gave 3.04, 3.91, 3.48 (mean 3.48; controls 3 of 9).
Variant EGDALRYYYAN / GDNNRPS / SSVDSSGFQVF gave 2.21, 1.84, 1.84 (mean 1.96; controls 4 of 9).
Variant EIDSLSYYYAN / GKNNRPS / SSRDSEGFQVF gave 2.77, 3.02, 4.04 (mean 3.27; controls 2 of 9).
Variant EGDSLRYYYAN / GKCNMPS / SSRDSSGFQVK gave nd, 5.94, nd (controls 0 of 9).
Variant EEDSLRYYYAN / GKNNRCS / SSRDSSGFQQF gave nd, nd, 3.38 (controls 2 of 9).
Variant EGDSLRYYYAN / GYNNRCS / SSRDSEGFQVF gave nd, nd, nd (controls 2 of 9).
Variant EGDSFRYYYAN / YKNNRFS / SSRDSSGFQVF gave nd, 4.16, nd (controls 1 of 9).
Variant EGDSLRYYYAN / ISNNRPS / SSRDSSGFQVF gave 4.16, nd, nd (controls 1 of 9).
Variant EGDVLRYYYAN / GKNPRPS / SSLDSSGFQVF gave nd, nd, nd (controls 3 of 9).
Variant EGDSLRYYYAT / GKNNRPS / ESRDSSGFHVF gave nd, 2.86, nd (controls 4 of 9).
Variant VGDSLRYYAAN / GKNNRPS / SSRDSHGFQVF gave 1.95, 1.96, 2.06 (mean 1.99; controls 3 of 9).
Variant EGTSLRYYVAN / GKNNRPS / SSRDSSGEQVF gave 2.85, 3.04, 2.57 (mean 2.82; controls 5 of 9).
Variant WGDSLRYYYAN / GKNNRQS / KSRDSSGFQVF gave 2.30, 2.67, 2.06 (mean 2.34; controls 4 of 9).